Measured values as given in US5270311A (dated 1993).

Chains of the proteins cited; added tags and fusions are not shown.
UniProt P47745, whole entry: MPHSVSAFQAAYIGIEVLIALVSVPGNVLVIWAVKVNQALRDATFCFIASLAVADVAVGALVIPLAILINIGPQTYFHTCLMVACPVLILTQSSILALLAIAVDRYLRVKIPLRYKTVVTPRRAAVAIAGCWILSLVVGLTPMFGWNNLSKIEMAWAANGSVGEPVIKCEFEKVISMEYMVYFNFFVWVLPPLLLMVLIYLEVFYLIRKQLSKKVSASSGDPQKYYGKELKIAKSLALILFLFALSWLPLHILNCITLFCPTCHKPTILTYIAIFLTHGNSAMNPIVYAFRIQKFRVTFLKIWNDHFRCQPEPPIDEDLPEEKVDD

Target: adenosine receptor known as A1 (Cavia porcellus, UniProt P47745)
Assay: Guinea-pig Atrial Bradycardic Test

Q: For `Cn1c(=O)c2[nH]cnc2n(C)c1=O` [1,3-dimethylxanthine, reference compound], which Kb is on record?
A: ~10 µM
